Results on one molecule are retold here after US20240140952A1, “INHIBITORS AND DEGRADERS OF JANUS KINASE 2” (H. LEE MOFFITT CANCER CENTER AND RESEARCH INSTITUTE, INC., priority 2021, published 2024).

Sequences of proteins named here, by UniProt entry; tags and fusion partners are left off. A change or cut given only in a name is not applied to a line headed by its entry.
UniProt O60674: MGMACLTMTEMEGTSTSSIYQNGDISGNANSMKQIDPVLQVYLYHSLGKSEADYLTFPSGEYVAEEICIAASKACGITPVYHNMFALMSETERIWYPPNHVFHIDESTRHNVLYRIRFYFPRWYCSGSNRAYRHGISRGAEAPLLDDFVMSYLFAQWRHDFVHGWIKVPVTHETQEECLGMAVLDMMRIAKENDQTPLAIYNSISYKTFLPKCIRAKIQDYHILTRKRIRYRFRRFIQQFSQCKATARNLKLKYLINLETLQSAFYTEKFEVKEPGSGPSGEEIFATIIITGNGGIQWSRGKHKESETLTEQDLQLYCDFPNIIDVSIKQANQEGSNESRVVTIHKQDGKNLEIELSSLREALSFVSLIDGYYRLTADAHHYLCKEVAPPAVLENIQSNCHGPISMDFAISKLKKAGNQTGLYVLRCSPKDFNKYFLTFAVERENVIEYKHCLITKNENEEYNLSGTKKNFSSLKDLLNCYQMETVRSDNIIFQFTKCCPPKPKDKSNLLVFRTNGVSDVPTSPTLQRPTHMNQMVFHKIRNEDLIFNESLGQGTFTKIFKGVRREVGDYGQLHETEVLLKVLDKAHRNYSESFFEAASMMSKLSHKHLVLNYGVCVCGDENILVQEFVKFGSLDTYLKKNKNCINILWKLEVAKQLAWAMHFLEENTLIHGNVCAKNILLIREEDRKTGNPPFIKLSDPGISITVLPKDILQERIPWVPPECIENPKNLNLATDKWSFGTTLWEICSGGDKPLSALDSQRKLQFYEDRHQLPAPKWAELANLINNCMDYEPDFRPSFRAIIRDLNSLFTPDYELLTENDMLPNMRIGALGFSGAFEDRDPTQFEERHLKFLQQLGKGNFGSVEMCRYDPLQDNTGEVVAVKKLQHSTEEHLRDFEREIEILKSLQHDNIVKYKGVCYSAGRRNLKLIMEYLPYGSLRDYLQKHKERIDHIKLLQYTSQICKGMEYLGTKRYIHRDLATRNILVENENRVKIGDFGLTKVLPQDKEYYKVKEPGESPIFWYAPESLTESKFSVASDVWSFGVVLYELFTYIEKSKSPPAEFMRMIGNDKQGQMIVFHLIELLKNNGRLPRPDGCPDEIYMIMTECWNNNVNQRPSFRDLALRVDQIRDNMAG

The test has as its target JAK2 (Homo sapiens (Human), UniProt O60674). In words: Radiometric assay of enzymatic JAK2 activity by Reaction Biology Corp. Particulars: read-out: Biochemical inhibition IC50.

As usually defined, the IC50 is the concentration needed to halve the response being measured. `CCS(=O)(=O)N1CC(CC#N)(n2cc(-c3ncnc4[nH]ccc34)cn2)C1` [Baricitinib, reference compound]: the IC50 was found to be 0.29 ± 0.13 nM.
